Biological target: CDK1/cyclin B
Experiment: CDK1/cyclin B kinase assay
Format: biochemical, starfish (Marthasterias glacialis)
Conditions: read-out: CDK1 IC50, 15 μM ATP

IC50 | SMILES
0.6 µM | O=C1Nc2cc(Br)ccc2/C1=C1/Nc2ccccc2/C1=N\OCCN1CCN(CCO)CC1 [Compound 13, (2′Z-3′E)-6-Bromoindirubin-3′-(O-{2-[4-(2-hydroxyethyl)piperazin-1-yl]ethyl}oxime)]
0.6 µM | O=C1Nc2cc(Br)ccc2/C1=C1/Nc2ccccc2/C1=N\OCCN(CCO)CCO [Compound 9]
1 µM | Cl.O=C1Nc2cc(Br)ccc2/C1=C1/Nc2ccccc2/C1=N\OCCN(CCO)CCO [Compound 20]
0.19 µM | CN(C)CCO/N=C1/C(=C2/C(=O)Nc3cc(Br)ccc32)Nc2ccccc21.Cl [Compound 16, (2′Z-3′E)-6-Bromoindirubin-3′-[O-(2-dimethylaminoethyl)oxime] Hydrochloride]
0.49 µM | CN(C)CCO/N=C1/C(=C2/C(=O)Nc3cc(Br)ccc32)Nc2ccccc21 [Compound 5, (2′Z-3′E)-6-Bromoindirubin-3′-[O-(2-dimethylaminoethyl)-oxime]]

Source: publication PMC2717725 (Journal of medicinal chemistry, 2008)
